Results: PubChem BioAssay AID485298 (National Center for Advancing Translational Sciences (NCATS), 2010)
The list shows a part of the results, in another mix than the full data. The source made the active and inactive calls. Calls follow the shape of the dose curve; as a rule, active = well fitted activation curve with a large enough effect; inconclusive = small, poorly fitted or top-dose-only effect; inactive = no such curve, though single readings can be large or run the other way.

test: qHTS Assay for Small Molecule Inhibitors of Mitochondrial Division or Activators of Mitochondrial Fusion; also: % of control where 0% means no effect; nearly all actives have a fitted effect of over 45% in size; conditions: S. cerevisiae fusion-defective mutant growth rescue, CellTiterGlo 48 h; series mostly up to 46.1 µM; growth rescue (activation): at the top concentration
Source text: NIH Chemical Genomics Center [NCGC] NIH Molecular Libraries Probe Production centers Network [MLPCN] MLPCN Grant: MH081279-01 Assay Submitter (PI): Jodi M. Nunnari NCGC Assay Overview: The budding yeast S. cerevisiae is a powerful system to study mitochondrial fusion. Unlike other organisms, yeast cells without functional mitochondrial DNA (mtDNA) can be propagated and studied as long as they maintain a mitochondrial compartment and are provided with a fermentable carbon source. When mitochondrial fusion is blocked in yeast, mitochondrial tubules rapidly fragment and division continues unopposed. Under conditions where fusion is compromised in mammalian cells, nearly identical changes in mitochondrial structure have been observed. Thus, these findings indicate that steady state mitochondrial structure in cells is a characteristic and specific indicator of fusion activity. Mounting evidence has pointed to a connection between mitochondrial dynamics and apoptosis in mammalian cells. These studies indicate that in mammalian cells mitochondrial dynamics are more integrated into cellular processes than in yeast cells and have evolved not only to distribute the organelle but also to aid in the regulation of cellular homeostasis. Mitochondrial fusion proteins attenuate apoptosis by inhibiting the release of cytochrome c from mitochondria, in part by controlling cristae structures. Thus, small molecules that inhibit mitochondrial […] may promote apoptosis and potentially act as novel chemotherapeutics and stimulation of apoptosis has become an attractive target of anti-cancer therapies. To identify inhibitors of mitochondrial division, we exploit the growth phenotypes of mitochondrial fusion-defective mutants. The temperature sensitive fusion alleles, such as fzo1-1 and mgm1-5, cause mitochondrial membranes to fragment in cells under non-permissive conditions and cells lose mtDNA, and are unable to grow in the presence of non-fermentable carbon source glycerol. Inhibiting mitochondrial division rescues growth. We have developed and optimized a luminescence cell viability assay in 1536 well format for the identification of inhibitors in the yeast mitochondrial fusion-defective assay.
The yeast glycerol stocks where kindly supplied by the laboratory of Dr. Jodi Nunnari, University of California, Davis. All yeast glycerol stock solutions were stored in single use aliquots at -80C. The CellTiterGlo luminescence reagent, containing luciferase and luciferin, were purchased from Promega, and the reagents were stored according to manufacturer's instructions. The Buffer components for the YPEG yeast growth medium were purchased from Sigma-Aldrich (St. Louis, MO). YPEG growth medium: 1% (w/v) yeast extract, 2% (w/v) Bacto-peptone, 3% Ethanol, 3% glycerol, 0.4mM Tryptophan, 0.36mM Adenine. qHTS Assay Protocol: 1.#Dispense 2.5 ul yeast growth medium per 1536 well plate. 2.#Transfer 23 nl per well of compound to plate. 3.#Dispense 2.5 ul yeast solution at appropriate seeding density per well. 4.#Incubate for 48 hours at 37C. 5.#Dispense 5 ul of CellTiterGlow solution per well. 6.#Incubate at ambient for 10 minutes. 7.#Read using bio-luminescence protocol on Viewlux.

| Structure (SMILES) | growth rescue (activation) | Potency |
| --- | --- | --- |
| Cc1cc(=O)[nH]c(N[N+](=O)[O-])n1 | inactive: 1.85% | – |
| Cc1c2c(nc3ccccc13)SC(C(Cl)Cl)C2 (centres undefined) | inactive: 4.77% | – |
| CCC(C)N(CC(C)C)C(=S)SC(NC(C)=O)C(Cl)(Cl)Cl (centres undefined) | inactive: 2.83% | – |
| CCOC(=O)c1ccc(NC(=O)C(C)(CCl)SC)cc1 (centres undefined) | inactive: -5.45% | – |
| O=C(OC1CN2CCC1CC2)c1cccc([N+](=O)[O-])c1 (centres undefined) | inactive: -2.12% | – |
| O=C(COc1ccccc1)OC1CN2CCC1CC2 (centres undefined) | inactive: -2.03% | – |
| O=C(Nc1ccncc1[N+](=O)[O-])c1ccc([N+](=O)[O-])cc1[N+](=O)[O-] | inactive: -27.5% | – |
| COP1(=S)c2c(C)nn(CCC#N)c2N=C(c2ccc(F)cc2)N1C (centres undefined) | inactive: 11.1% | – |
| O=[N+]([O-])c1ccc(Nc2ccc(Oc3ccc([N+](=O)[O-])cc3[N+](=O)[O-])cc2)c([N+](=O)[O-])c1 | inactive: 2.74% | – |
| Cc1cc(SC(NC=O)C(Cl)(Cl)Cl)ncn1 (centres undefined) | inactive: 13.5% | – |
| O=P(Nc1ccccn1)(c1cccc2ccccc12)c1cccc2ccccc12 | inactive: 3.36% | – |
| CCOC(=O)Nc1cccc([As](=O)(O)O)c1 | inactive: -0.0655% | – |
| CCCCOc1ccc(C(=O)NCC2(N3CCCCC3)CCCCC2)cc1OC | inactive: -5.25% | – |
| Cc1cc(SC(NC(=O)c2ccccc2)C(Cl)(Cl)Cl)nc(C(C)C)n1 (centres undefined) | inactive: 12.8% | – |
| CCOC(=O)Nc1ccc([As](=O)(O)O)c(O)c1 | inactive: -4.09% | – |
| O=[N+]([O-])c1cccc(NC2=NCC(CBr)S2)c1 (centres undefined) | inactive: -4.84% | – |
| O=C(O)CNc1ccc([As](=O)(O)O)cc1 | inactive: 0.177% | – |
| CC(C)(C)C(=O)NC(Sc1ccncn1)C(Cl)(Cl)Cl (centres undefined) | inactive: 9.95% | – |
| O=[N+]([O-])c1ncn(CCn2ncnc2[N+](=O)[O-])n1 | inactive: -1.05% | – |
| O=C(Nc1cc([As](=O)(O)O)ccc1O)c1ccccc1 | inactive: 10.2% | – |

| Structure (SMILES) | growth rescue (activation) | Potency |
| --- | --- | --- |
| CC(C)=N/N=C(\N)N[N+](=O)[O-] | inactive: 4.58% | – |
| CN(C)C(=O)OCCc1n(C)cc[n+]1C | inactive: -8.2% | – |
| CC1CCN(C(=O)Oc2c(Cl)cc(Cl)c3cccnc23)CC1 | inactive: 5.43% | – |
| Nc1ccc([As](=O)(O)c2ccc(N)cc2)cc1 | inactive: -5.8% | – |
| C[N+]1=C2C=CC=CC=C2SC12C([N+](=O)[O-])=CC([N+](=O)[O-])=C[C-]2[N+](=O)[O-] (centres undefined) | inactive: -6.64% | – |
| CCN(/C(=N/P(=O)(N1CCOCC1)N1CCOCC1)N1CCOCC1)c1ccc(OC)cc1 | inactive: 0.061% | – |
| CC(=O)N1C2C3N(C(C)=O)C1C1N(C(C)=O)C(C(N1C(C)=O)N3C(C)=O)N2C(C)=O | inactive: -0.101% | – |
| O=[N+]([O-])c1cccc2n[nH]nc12 | inactive: 2.23% | – |
| Cc1ccc(NP(=O)(Oc2ccccc2)Oc2ccccc2)nc1 | inactive: -4.56% | – |
| O=[N+]([O-])c1cc([N+](=O)[O-])c(CCNc2ccccc2)c([N+](=O)[O-])c1 | inactive: 4.09% | – |
| CCc1nc2c(n1)c1c(non1O)c1c2no[n+]1[O-] | inactive: -5.14% | – |
| COc1ccc(C2=NCC(CBr)S2)cc1 (centres undefined) | inactive: 2% | – |
| CC(C)CC(=O)NC(Sc1ccc(Cl)cc1)C(Cl)(Cl)Cl (centres undefined) | inactive: -1.93% | – |
| Nc1cc(N)c2nonc2c1[N+](=O)[O-] | inactive: -1% | – |
| Oc1ccccc1CNc1ccccn1 | inactive: 3.9% | – |
| Cc1c2non([O-])c-2c(C)[n+](=O)[n+]1[O-] | inactive: -11.4% | – |
| O=C(NC(Sc1ccncn1)C(Cl)(Cl)Cl)c1ccccc1 (centres undefined) | inactive: 4.83% | – |
| COc1ccccc1OP(=O)(Nc1ccc(C)cn1)Oc1ccccc1OC | inactive: -1.94% | – |
| Cc1ccc(OP(=O)(Nc2nccs2)Oc2ccc(C)cc2)cc1 | inactive: -5.15% | – |
| Clc1ccc(Cl)c(NC2=NCC(CBr)S2)c1 (centres undefined) | inactive: -12.5% | – |

| Structure (SMILES) | growth rescue (activation) | Potency |
| --- | --- | --- |
| CN1CCCC(OC(=O)C(c2ccccc2)c2ccccc2)C1 (centres undefined) | inactive: 1.34% | – |
| NC(=O)c1cc([N+](=O)[O-])cc([N+](=O)[O-])c1N | inactive: -1.67% | – |
| CN(C(=O)Cc1ccc(Cl)c(Cl)c1)[C@H]1CCCC[C@H]1N1CCCC1 | inactive: 1.98% | – |
| Cc1ccc(N/C(=N/P(=O)(N2CCOCC2)N2CCOCC2)N2CCOCC2)cc1 | inactive: 0.826% | – |
| CCN(N=Nc1nonc1N)c1nonc1N | inactive: -7.59% | – |
| O=[N+]([O-])c1cc([N+](=O)[O-])c(CCN2CCOCC2)c([N+](=O)[O-])c1 | inactive: 6.04% | – |
| CCOP(=O)(Nc1ccccc1)OCC | – | inactive |
| Cc1cc(SC(NC(=O)c2ccc(F)cc2)C(Cl)(Cl)Cl)ncn1 (centres undefined) | inactive: 6.34% | – |
| CN(C(=O)Cc1ccc(Cl)c(Cl)c1)[C@H]1CCCC[C@@H]1N1CCCC1 | – | inactive |
| Cc1ccc(NP(=O)(Oc2ccccc2F)Oc2ccccc2F)nc1 | inactive: 3.39% | – |
| O=C(O)c1ccccc1[As](=O)(O)O | inactive: -13.9% | – |
| CC(=O)Nc1ccc([As](=O)(O)O)cc1 | inactive: 4.46% | – |
| O=P(Nc1nc2ccc(Cl)cc2s1)(c1ccccc1)c1ccccc1 | inactive: 13.4% | – |
| Cc1ccccc1OP(=O)(Nc1ccccn1)Oc1ccccc1C | inactive: 10.3% | – |
| CN(C)C(=O)Oc1noc2ccccc12 | inactive: 2.07% | – |
| O=c1c2cc([N+](=O)[O-])ccc2[nH]c2c([N+](=O)[O-])cc([N+](=O)[O-])cc12 | inactive: -32.7% | – |
| COC(=O)c1cc2c(s1)N=C(c1ccccc1)N(C)P2(=O)N1CCOCC1 (centres undefined) | inactive: 1.11% | – |
| Cc1ccc(OP(=O)(Nc2ccccn2)Oc2ccc(C)cc2)cc1 | inactive: 12.8% | – |
| CC(=O)NC(SC(=S)N(CC(C)C)CC(C)C)C(Cl)(Cl)Cl (centres undefined) | inactive: 0.847% | – |
